Laboratory results as given in patent publication US7622441B2, “Sustained release pharmaceutical compounds to prevent abuse of controlled substances” (Shire LLC, priority 2002, dated 2009).
Where two headings read alike, the source gives them in different places.

What was measured:
[1] = Pharmacokinetics of narcotic conjugates by oral administration (serum hydrocodone/oxycodone by ELISA); settings: for Shape of the Curve: rat serum concentration curve vs. parent drug; for Peak Time / % AUC / % Cmax: rat serum; for Peak Time: multiple of parent drug's peak time; for % AUC / % Cmax: vs. equivalent dose of parent drug
[2] = Stability of narcotic conjugates in water (narcotic release, abuse resistance tests); type: physicochemical; settings: numbers based upon narcotic release
[3] = intranasal, serum, buffer PBS

Substance	Shape of the Curve [1]	Peak Time [1]	% AUC [1]	% Cmax [1]	H2O (1 h, 90 C.) [2]	H2O (24 h, RT) [2]	Comments (curve) [3]	Peak Time ([3]; multiple of hydrocodone's peak time)	% AUC ([3]; vs. hydrocodone)	% Cmax ([3]; vs. hydrocodone)
Ala-Pro-Hydrocodone [Ala-Pro-HC]	++Clearance	1X	48%	106%	–	–	–	–	–	–
Boc-Gly-Gly-Leu-Hydrocodone [Boc-Gly-Gly-Leu-HC]	+Clearance	1X	68%	96%	–	–	–	–	–	–
Gly-Gly-Leu-Hydrocodone [Gly-Gly-Leu-HC]	+Clearance	1X	82%	126%	16	5	Flat curve	6X	77%	62%
